In BindingDB's records for doi:10.1021/jm980217s (Abbott Laboratories, 1998):

Assay: Binding affinity for endothelin B receptor by measuring its ability to displace [125I]-ET-3 from porcine cerebellar tissue

Molecule CCCCN(CCCC)C(=O)CN1C[C@H](c2cc(OC)c3c(c2)OCO3)[C@@H](C(=O)O)[C@@H]1CC(C)(C)CCC [1-Dibutylcarbamoylmethyl-2-(2,2-dimethyl-pentyl)-4-(7-methoxy-benzo[1,3]dioxol-5-yl)-pyrrolidine-3-carboxylic acid] has a pIC50 of 4.78.

pIC50: −log10 of the molar value.
